Target: OX1R (Homo sapiens, UniProt O43613)
Assay: FLIPR Tetra calcium assay, OX1R inhibition
Type: cell-based

By UniProt entry, the sequences of proteins in these tests, tags left out.
UniProt O43613, whole entry: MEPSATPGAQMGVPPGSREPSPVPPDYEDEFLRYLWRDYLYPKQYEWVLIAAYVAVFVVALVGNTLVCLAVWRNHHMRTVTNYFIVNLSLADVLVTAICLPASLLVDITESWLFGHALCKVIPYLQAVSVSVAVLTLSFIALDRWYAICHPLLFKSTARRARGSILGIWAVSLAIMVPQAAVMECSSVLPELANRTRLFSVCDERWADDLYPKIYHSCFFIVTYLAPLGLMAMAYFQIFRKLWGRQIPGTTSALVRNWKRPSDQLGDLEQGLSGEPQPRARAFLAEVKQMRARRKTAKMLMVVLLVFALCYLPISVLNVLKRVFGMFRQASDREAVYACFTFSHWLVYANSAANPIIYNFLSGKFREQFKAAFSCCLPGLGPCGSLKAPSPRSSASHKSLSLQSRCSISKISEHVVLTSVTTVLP

SMILES: Cc1ccc(-n2nccn2)c(C(=O)N2CCN(c3nc4cc(Cl)ccc4o3)CC[C@H]2C)c1 [Suvorexant]
- IC50: 140 nM

Reference: PMC9056352 (RSC Advances, 2020)
